The chains behind the UniProt entries cited, without tags or fusion partners. Where a name states a change or a piece, a line headed by the entry shows the natural chain unless it says otherwise.
UniProt Q14164: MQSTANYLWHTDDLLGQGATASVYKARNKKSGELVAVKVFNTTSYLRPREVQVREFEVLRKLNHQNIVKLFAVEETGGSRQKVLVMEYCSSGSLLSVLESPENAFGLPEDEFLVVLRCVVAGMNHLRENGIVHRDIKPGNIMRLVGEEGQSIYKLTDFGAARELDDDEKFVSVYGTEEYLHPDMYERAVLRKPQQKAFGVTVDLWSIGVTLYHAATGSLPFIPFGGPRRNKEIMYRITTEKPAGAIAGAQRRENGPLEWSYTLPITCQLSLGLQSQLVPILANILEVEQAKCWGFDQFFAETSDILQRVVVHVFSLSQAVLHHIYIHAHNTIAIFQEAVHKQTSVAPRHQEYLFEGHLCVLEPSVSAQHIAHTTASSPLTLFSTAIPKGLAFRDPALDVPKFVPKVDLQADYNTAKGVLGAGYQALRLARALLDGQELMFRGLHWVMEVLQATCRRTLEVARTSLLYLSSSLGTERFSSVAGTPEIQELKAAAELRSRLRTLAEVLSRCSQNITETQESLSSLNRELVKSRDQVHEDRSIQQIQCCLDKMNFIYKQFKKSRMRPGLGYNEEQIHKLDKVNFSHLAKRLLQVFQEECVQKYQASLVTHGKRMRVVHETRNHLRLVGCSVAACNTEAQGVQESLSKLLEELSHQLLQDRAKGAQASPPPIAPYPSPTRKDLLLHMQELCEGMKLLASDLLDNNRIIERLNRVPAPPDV
UniProt Q9UHD2: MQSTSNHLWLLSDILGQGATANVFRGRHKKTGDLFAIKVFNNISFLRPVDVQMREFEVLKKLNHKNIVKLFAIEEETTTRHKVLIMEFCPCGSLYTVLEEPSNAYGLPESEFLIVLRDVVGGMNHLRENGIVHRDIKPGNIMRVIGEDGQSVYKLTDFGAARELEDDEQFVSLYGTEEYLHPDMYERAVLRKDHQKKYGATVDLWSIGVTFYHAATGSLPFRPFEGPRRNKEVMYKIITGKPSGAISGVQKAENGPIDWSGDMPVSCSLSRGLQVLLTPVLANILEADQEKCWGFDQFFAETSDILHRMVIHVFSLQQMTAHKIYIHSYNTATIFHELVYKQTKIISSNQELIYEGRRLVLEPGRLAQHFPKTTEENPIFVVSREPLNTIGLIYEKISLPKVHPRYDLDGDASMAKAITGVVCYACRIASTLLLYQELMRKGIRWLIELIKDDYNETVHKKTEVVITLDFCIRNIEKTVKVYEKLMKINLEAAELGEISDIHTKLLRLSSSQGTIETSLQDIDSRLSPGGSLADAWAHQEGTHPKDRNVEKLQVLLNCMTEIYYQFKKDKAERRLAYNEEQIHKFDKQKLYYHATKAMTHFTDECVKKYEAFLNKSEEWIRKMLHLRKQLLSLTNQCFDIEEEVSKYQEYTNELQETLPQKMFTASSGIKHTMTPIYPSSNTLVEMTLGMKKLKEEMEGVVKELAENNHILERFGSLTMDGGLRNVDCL

These compounds were tested against IKKε (Homo sapiens (Human), UniProt Q14164) (assay: TR-FRET kinase assay, IKKε). Conditions: full length recombinant IKKε 0.3 nM, 2x Km ATP, 1 μM peptide, 240 min at 25° C.; geometric mean of minimum four determinations.
Assay type: biochemical
Excerpt: Biological Assay for TBK1 and IKKs:

Compound | IC50 [nM]
N#Cc1cc(-c2ncnc3[nH]c(-c4ccc(N5CCOCC5)nc4)cc23)ccc1OC1CCOCC1 [Example 155, 5-(6-(6-morpholinopyridin-3-yl)-7H-pyrrolo[2,3-d]pyrimidin-4-yl)-2-((tetrahydro-2H-pyran-4-yl)oxy)benzonitrile] | 15.2
CC(C)(C)Oc1cc(-c2cc3c(-c4ccc(OC5CCOCC5)c(C#N)c4)ccnc3[nH]2)ccn1 [Example 225, 5-(2-(2-(tert-butoxy)pyridin-4-yl)-1H-pyrrolo[2,3-b]pyridin-4-yl)-2-((tetrahydro-2H-pyran-4-yl)oxy)benzonitrile] | 1000
N#Cc1cc(-c2cc3c(-c4ccc(OC5CCOCC5)c(C#N)c4)ncnc3[nH]2)ccc1OC1CCOCC1 [Example 223, 5,5′-(7H-pyrrolo[2,3-d]pyrimidine-4,6-diyl)bis(2-((tetrahydro-2H-pyran-4-yl)oxy)benzonitrile)] | 25.1

These compounds were tested against TBK1 (Homo sapiens (Human), UniProt Q9UHD2) (assay: TR-FRET kinase assay, TBK1). Conditions: read-out: TBK1-IC50; full length recombinant TBK1 2.5 nM, 2x Km ATP, 1 μM peptide, 240 min at 25° C.; geometric mean of minimum four determinations.

Compound | IC50 [nM]
CC(C)(C)Oc1cc(-c2cc3c(-c4ccc(OC5CCOCC5)c(C#N)c4)ccnc3[nH]2)ccn1 [Example 225, 5-(2-(2-(tert-butoxy)pyridin-4-yl)-1H-pyrrolo[2,3-b]pyridin-4-yl)-2-((tetrahydro-2H-pyran-4-yl)oxy)benzonitrile] | 1000
COC(=O)c1ccc(-c2cc3c(-c4ccc(OC5CCOCC5)c(C#N)c4)ccnc3[nH]2)cc1 [Example 238, Methyl 4-(4-(3-cyano-4-((tetrahydro-2H-pyran-4-yl)oxy)phenyl)-1H-pyrrolo[2,3-b]pyridin-2-yl)benzoate] | 268
N#Cc1cc(-c2ncnc3[nH]ccc23)ccc1OC1CCOCC1 [Example 108, 5-(7H-pyrrolo[2,3-d]pyrimidin-4-yl)-2-((tetrahydro-2H-pyran-4-yl)oxy)benzonitrile] | 1410
